Experimental data taken from patent US7074770B1, “Method of DNA vaccination” (SmithKline Beecham Corporation, priority 1998, dated 2006).

System: splenocytes stimulated with S6C-E4 / S6C-VE4 (EBNA-4)
Type: in vivo, mice
Conditions: i.m. E4, tucaresol s.c., FIG. 4

Question: How did the splenocyte proliferative response turn out when O=Cc1c(O)cccc1OCc1ccc(C(=O)O)cc1 [tucaresol, 4-(2-formyl-3-hydroxyphenoxymethyl)benzoic acid] was run?
Answer: Its splenocyte proliferative response is “much stronger proliferative response”.
